Experimental data reported in article PMC7179958, “Prediction of Clinical Transporter‐Mediated Drug–Drug Interactions via Comeasurement of Pitavastatin and Eltrombopag in Human Hepatocyte Models” (CPT: Pharmacometrics & Systems Pharmacology, 2020).

System: human hepatocytes
Test: Uptake of pitavastatin and eltrombopag in cryopreserved human hepatocytes (oil spin method), comeasurement, micro‐rate constant mechanistic model
Type: in vitro ADME
Description: Human hepatocytes were obtained from BioIVT (Brussels, Belgium; lot number: LYB; 10 donor LiverPool (8 Caucasians, 1 African American, and 1 Hispanic) and thawed according to supplier guidelines in Leibovitz L15 medium. Hepatocytes were kept on ice prior to use and were used within 3 hours of defrosting.
Hepatocytes (viability 84–87%) were preincubated in Leibovitz L15 medium at 1.5 × 10^6 cells for 15 minutes at 37 °C with either 0.1% DMSO or 45 nmol/mL eltrombopag. Incubations were started by the addition of pitavastatin (0.3–100 nmol/mL, 1 × 10^6 cells, 0.35% DMSO, 30 nmol/mL eltrombopag final), and 100 µL samples taken at 0.25–30 minutes. Cells were separated using an oil spin method similar to the literature. ^11 , ^17 After separation, the tubes were frozen on dry ice and the bottom layer was cut off. Pitavastatin and eltrombopag were extracted in a stop solution prior to ultra‐performance liquid chromatography–high‐resolution mass spectrometry analysis (see the Supplemental Material for full experimental and sample extraction methods).
The bottom layer concentrations of pitavastatin and eltrombopag were converted to a cellular concentration using a cellular volume (V cell) of 3 µL/1 × 10^6 human hepatocytes: ^18 (1) cellnmol/mL=Bottom layer×15.3μL/Vcell/100 where V cell /1 × 10^5 cells was 0.3 µL, and the volume of the bottom layer of cesium chloride was 15 µL. A dilution factor of 100 was used to scale from pmol/mL/1 × 10^5 cells to nmol/mL/1 × 10^6 cells.
The final chosen mechanistic model (model 1 with the comeasurement of pitavastatin and eltrombopag; Table 1 ) was based on the outcome of the structural identifiability analysis and goodness‐of‐fit statistics (Bayesian information criterion, and the weighted Bayesian information criterion, ^21 and the sum of the relative mean square root error (percentage RMSRE); see Supplemental Material ). Model 1 was described using a set of ODEs representing the following: the amount of pitavastatin (X = substrate (S) or pitavastatin (P)) and eltrombopag (X = inhibitor (I) or eltrombopag (E)) in the medium (X 1), the amount bound to transporter (X 2), and the intracellular amount (X 3). Passive rate constants for movement into and out of the cell (k f.X and k bX, respectively) as well as uptake transporter‐mediated rate constants for association to the transporter (k aX) and dissociation (k dX) and translocation (k tX) from the transporter into the medium and cell, respectively. Metabolism of pitavastatin in the cell was through an elimination rate constant (k e). The sets of ODEs for all the models (models 1–4; Table 1 ) tested for structural identifiability and used for parameter estimation are included in the Supplemental Material .
Parameter estimation was conducted within Monolix 2018 R2 (Lixoft, Antony, France) for each concentration and experiment as an individual data set, where to ensure positivity, a log‐normal distribution was assumed for each parameter, with a proportional residual error model for the observations. Because of the large number of parameters to be estimated in the combined pitavastatin and eltrombopag mechanistic model, the initial estimates for pitavastatin and eltrombopag each were obtained for the micro‐rate constant models (no macro‐rate constant estimates could be obtained for eltrombopag alone for transporter‐mediated uptake).
Hepatocyte Incubations. 0.4 mL of hepatocytes was diluted 1:1 with Leibovitz either containing DMSO blank (0.1 % for pitavastatin or 0.25 % for eltrombopag alone) or eltrombopag at 90 nmol/mL and pre-incubated at 1.5x10^6 cells/mL for 15 min at 37 °C in 7 mL glass scintillation vials (PerkinElmer, Vasby, Sweden) in a shaking water bath (Grant Instruments, Cambridge, UK). Pitavastatin was dissolved and serially diluted in DMSO to give 0.12, 0.4, 1.2, 4, 12 and 40 µmol/mL, and then diluted 400-fold into 37 °C Leibovitz L15 medium. […]

O=C(O)C[C@H](O)C[C@H](O)/C=C/c1c(C2CC2)nc2ccccc2c1-c1ccc(F)cc1 [pitavastatin, pitavastatin calcium]
DV (pitavastatin uptake into hepatocytes) (ID 23, AMT 1, TIME 20, DVID 2): 6.95 | DV (pitavastatin uptake into hepatocytes) (ID 23, AMT 1, TIME 25, DVID 2): 7.41 | DV (pitavastatin uptake into hepatocytes) (ID 23, AMT 1, TIME 45, DVID 2): 6.87 | DV (pitavastatin uptake into hepatocytes) (ID 24, AMT 1, TIME 15.25, DVID 2): 1.01 | DV (pitavastatin uptake into hepatocytes) (ID 24, AMT 1, TIME 15.5, DVID 2): 1.32 | DV (pitavastatin uptake into hepatocytes) (ID 24, AMT 1, TIME 16, DVID 2): 2.01 | DV (pitavastatin uptake into hepatocytes) (ID 24, AMT 1, TIME 17, DVID 2): 3.12 | DV (pitavastatin uptake into hepatocytes) (ID 24, AMT 1, TIME 20, DVID 2): 3.79 | DV (pitavastatin uptake into hepatocytes) (ID 24, AMT 1, TIME 25, DVID 2): 4.34 | DV (pitavastatin uptake into hepatocytes) (ID 24, AMT 1, TIME 45, DVID 2): 3.81 | DV (pitavastatin uptake into hepatocytes) (ID 25, AMT 3, TIME 15.25, DVID 2): 2.77 | DV (pitavastatin uptake into hepatocytes) (ID 25, AMT 3, TIME 15.5, DVID 2): 3.9 | DV (pitavastatin uptake into hepatocytes) (ID 25, AMT 3, TIME 16, DVID 2): 5.45 | DV (pitavastatin uptake into hepatocytes) (ID 25, AMT 3, TIME 17, DVID 2): 6.15 | DV (pitavastatin uptake into hepatocytes) (ID 25, AMT 3, TIME 20, DVID 2): 8.63 | DV (pitavastatin uptake into hepatocytes) (ID 25, AMT 3, TIME 25, DVID 2): 8.51 | DV (pitavastatin uptake into hepatocytes) (ID 25, AMT 3, TIME 45, DVID 2): 8.88 | DV (pitavastatin uptake into hepatocytes) (ID 26, AMT 3, TIME 15.25, DVID 2): 7.14 | DV (pitavastatin uptake into hepatocytes) (ID 26, AMT 3, TIME 15.5, DVID 2): 9.19 | DV (pitavastatin uptake into hepatocytes) (ID 26, AMT 3, TIME 16, DVID 2): 12.88 | DV (pitavastatin uptake into hepatocytes) (ID 26, AMT 3, TIME 17, DVID 2): 12.66 | DV (pitavastatin uptake into hepatocytes) (ID 26, AMT 3, TIME 20, DVID 2): 19.85 | DV (pitavastatin uptake into hepatocytes) (ID 26, AMT 3, TIME 25, DVID 2): 21.39 | DV (pitavastatin uptake into hepatocytes) (ID 26, AMT 3, TIME 45, DVID 2): 21.78 | DV (pitavastatin uptake into hepatocytes) (ID 27, AMT 3, TIME 15.25, DVID 2): 3.01 | DV (pitavastatin uptake into hepatocytes) (ID 27, AMT 3, TIME 15.5, DVID 2): 3.97 | DV (pitavastatin uptake into hepatocytes) (ID 27, AMT 3, TIME 16, DVID 2): 5.7 | DV (pitavastatin uptake into hepatocytes) (ID 27, AMT 3, TIME 17, DVID 2): 7.64 | DV (pitavastatin uptake into hepatocytes) (ID 27, AMT 3, TIME 20, DVID 2): 9.22 | DV (pitavastatin uptake into hepatocytes) (ID 27, AMT 3, TIME 25, DVID 2): 11.17 | DV (pitavastatin uptake into hepatocytes) (ID 27, AMT 3, TIME 45, DVID 2): 9.03 | DV (pitavastatin uptake into hepatocytes) (ID 28, AMT 10, TIME 15.25, DVID 2): 8.66 | DV (pitavastatin uptake into hepatocytes) (ID 28, AMT 10, TIME 15.5, DVID 2): 11.6 | DV (pitavastatin uptake into hepatocytes) (ID 28, AMT 10, TIME 16, DVID 2): 13.7 | DV (pitavastatin uptake into hepatocytes) (ID 28, AMT 10, TIME 17, DVID 2): 20.56 | DV (pitavastatin uptake into hepatocytes) (ID 28, AMT 10, TIME 20, DVID 2): 22.94 | DV (pitavastatin uptake into hepatocytes) (ID 28, AMT 10, TIME 25, DVID 2): 25.07 | DV (pitavastatin uptake into hepatocytes) (ID 28, AMT 10, TIME 45, DVID 2): 27.58 | DV (pitavastatin uptake into hepatocytes) (ID 29, AMT 10, TIME 15.25, DVID 2): 20.13 | DV (pitavastatin uptake into hepatocytes) (ID 29, AMT 10, TIME 15.5, DVID 2): 27.47 | DV (pitavastatin uptake into hepatocytes) (ID 29, AMT 10, TIME 16, DVID 2): 37.04 | DV (pitavastatin uptake into hepatocytes) (ID 29, AMT 10, TIME 17, DVID 2): 47.38 | DV (pitavastatin uptake into hepatocytes) (ID 29, AMT 10, TIME 20, DVID 2): 54.85 | DV (pitavastatin uptake into hepatocytes) (ID 29, AMT 10, TIME 25, DVID 2): 67.61 | DV (pitavastatin uptake into hepatocytes) (ID 29, AMT 10, TIME 45, DVID 2): 56.74 | DV = amount of measured pitavastatin and/or eltrombopag (ID 29, pitavastatin AMT 10 nmol at TIME 15, TIME 16 min): 37.04 nmol | DV = amount of measured pitavastatin and/or eltrombopag (ID 29, pitavastatin AMT 10 nmol at TIME 15, TIME 17 min): 47.38 nmol | DV = amount of measured pitavastatin and/or eltrombopag (ID 29, pitavastatin AMT 10 nmol at TIME 15, TIME 20 min): 54.85 nmol | DV = amount of measured pitavastatin and/or eltrombopag (ID 29, pitavastatin AMT 10 nmol at TIME 15, TIME 25 min): 67.61 nmol | DV = amount of measured pitavastatin and/or eltrombopag (ID 29, pitavastatin AMT 10 nmol at TIME 15, TIME 45 min): 56.74 nmol | DV (pitavastatin uptake into hepatocytes) (ID 30, AMT 10, TIME 15.25, DVID 2): 10.53 | DV (pitavastatin uptake into hepatocytes) (ID 30, AMT 10, TIME 15.5, DVID 2): 12.06 | DV (pitavastatin uptake into hepatocytes) (ID 30, AMT 10, TIME 16, DVID 2): 17.35 | DV (pitavastatin uptake into hepatocytes) (ID 30, AMT 10, TIME 17, DVID 2): 21.4 | DV (pitavastatin uptake into hepatocytes) (ID 30, AMT 10, TIME 20, DVID 2): 28.45 | DV (pitavastatin uptake into hepatocytes) (ID 30, AMT 10, TIME 25, DVID 2): 34.14 | DV (pitavastatin uptake into hepatocytes) (ID 30, AMT 10, TIME 45, DVID 2): 28.9 | DV = amount of measured pitavastatin and/or eltrombopag (ID 30, pitavastatin AMT 10 nmol at TIME 15, TIME 15.25 min): 10.53 nmol | DV = amount of measured pitavastatin and/or eltrombopag (ID 30, pitavastatin AMT 10 nmol at TIME 15, TIME 15.5 min): 12.06 nmol | DV = amount of measured pitavastatin and/or eltrombopag (ID 30, pitavastatin AMT 10 nmol at TIME 15, TIME 16 min): 17.35 nmol | DV = amount of measured pitavastatin and/or eltrombopag (ID 30, pitavastatin AMT 10 nmol at TIME 15, TIME 17 min): 21.4 nmol | DV = amount of measured pitavastatin and/or eltrombopag (ID 30, pitavastatin AMT 10 nmol at TIME 15, TIME 20 min): 28.45 nmol | DV = amount of measured pitavastatin and/or eltrombopag (ID 30, pitavastatin AMT 10 nmol at TIME 15, TIME 25 min): 34.14 nmol | DV = amount of measured pitavastatin and/or eltrombopag (ID 30, pitavastatin AMT 10 nmol at TIME 15, TIME 45 min): 28.9 nmol | DV (pitavastatin uptake into hepatocytes) (ID 31, AMT 30, TIME 15.25, DVID 2): 26.63 | DV (pitavastatin uptake into hepatocytes) (ID 31, AMT 30, TIME 15.5, DVID 2): 31.4 | DV (pitavastatin uptake into hepatocytes) (ID 31, AMT 30, TIME 16, DVID 2): 43.67 | DV (pitavastatin uptake into hepatocytes) (ID 31, AMT 30, TIME 17, DVID 2): 56.57 | DV (pitavastatin uptake into hepatocytes) (ID 31, AMT 30, TIME 20, DVID 2): 70.75 | DV (pitavastatin uptake into hepatocytes) (ID 31, AMT 30, TIME 25, DVID 2): 59.98 | DV (pitavastatin uptake into hepatocytes) (ID 31, AMT 30, TIME 45, DVID 2): 87.76 | DV = amount of measured pitavastatin and/or eltrombopag (ID 31, pitavastatin AMT 30 nmol at TIME 15, TIME 15.25 min): 26.63 nmol | DV = amount of measured pitavastatin and/or eltrombopag (ID 31, pitavastatin AMT 30 nmol at TIME 15, TIME 15.5 min): 31.4 nmol | DV = amount of measured pitavastatin and/or eltrombopag (ID 31, pitavastatin AMT 30 nmol at TIME 15, TIME 16 min): 43.67 nmol | DV = amount of measured pitavastatin and/or eltrombopag (ID 31, pitavastatin AMT 30 nmol at TIME 15, TIME 17 min): 56.57 nmol | DV = amount of measured pitavastatin and/or eltrombopag (ID 31, pitavastatin AMT 30 nmol at TIME 15, TIME 20 min): 70.75 nmol
